Laboratory results from patent US12558350B2, “Compositions and methods for treatment” (Bausch + Lomb Ireland Limited, priority 2005, dated 2026).

Chains of the proteins cited; added tags and fusions are not shown. Residues count along the entry.
UniProt P05107, 23-769: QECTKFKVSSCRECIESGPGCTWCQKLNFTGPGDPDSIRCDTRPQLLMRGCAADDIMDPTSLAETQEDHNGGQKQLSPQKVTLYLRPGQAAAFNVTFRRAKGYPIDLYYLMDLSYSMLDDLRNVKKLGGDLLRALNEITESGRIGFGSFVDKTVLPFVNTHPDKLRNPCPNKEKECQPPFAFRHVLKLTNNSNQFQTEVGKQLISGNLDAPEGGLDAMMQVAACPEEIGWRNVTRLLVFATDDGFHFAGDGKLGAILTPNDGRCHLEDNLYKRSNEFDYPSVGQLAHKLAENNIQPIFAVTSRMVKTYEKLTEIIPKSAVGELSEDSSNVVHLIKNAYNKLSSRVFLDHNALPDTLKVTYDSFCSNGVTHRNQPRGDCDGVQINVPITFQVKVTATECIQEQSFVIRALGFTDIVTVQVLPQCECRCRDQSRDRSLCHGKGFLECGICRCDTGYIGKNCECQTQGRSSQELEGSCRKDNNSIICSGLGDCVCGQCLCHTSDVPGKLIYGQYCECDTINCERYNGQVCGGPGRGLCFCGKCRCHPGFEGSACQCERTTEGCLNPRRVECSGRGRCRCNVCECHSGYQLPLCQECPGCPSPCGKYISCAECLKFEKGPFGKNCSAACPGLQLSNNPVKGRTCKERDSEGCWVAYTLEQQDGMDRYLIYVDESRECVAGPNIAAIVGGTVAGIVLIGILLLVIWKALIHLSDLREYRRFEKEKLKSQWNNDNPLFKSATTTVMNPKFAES
UniProt P20701, 26-1170: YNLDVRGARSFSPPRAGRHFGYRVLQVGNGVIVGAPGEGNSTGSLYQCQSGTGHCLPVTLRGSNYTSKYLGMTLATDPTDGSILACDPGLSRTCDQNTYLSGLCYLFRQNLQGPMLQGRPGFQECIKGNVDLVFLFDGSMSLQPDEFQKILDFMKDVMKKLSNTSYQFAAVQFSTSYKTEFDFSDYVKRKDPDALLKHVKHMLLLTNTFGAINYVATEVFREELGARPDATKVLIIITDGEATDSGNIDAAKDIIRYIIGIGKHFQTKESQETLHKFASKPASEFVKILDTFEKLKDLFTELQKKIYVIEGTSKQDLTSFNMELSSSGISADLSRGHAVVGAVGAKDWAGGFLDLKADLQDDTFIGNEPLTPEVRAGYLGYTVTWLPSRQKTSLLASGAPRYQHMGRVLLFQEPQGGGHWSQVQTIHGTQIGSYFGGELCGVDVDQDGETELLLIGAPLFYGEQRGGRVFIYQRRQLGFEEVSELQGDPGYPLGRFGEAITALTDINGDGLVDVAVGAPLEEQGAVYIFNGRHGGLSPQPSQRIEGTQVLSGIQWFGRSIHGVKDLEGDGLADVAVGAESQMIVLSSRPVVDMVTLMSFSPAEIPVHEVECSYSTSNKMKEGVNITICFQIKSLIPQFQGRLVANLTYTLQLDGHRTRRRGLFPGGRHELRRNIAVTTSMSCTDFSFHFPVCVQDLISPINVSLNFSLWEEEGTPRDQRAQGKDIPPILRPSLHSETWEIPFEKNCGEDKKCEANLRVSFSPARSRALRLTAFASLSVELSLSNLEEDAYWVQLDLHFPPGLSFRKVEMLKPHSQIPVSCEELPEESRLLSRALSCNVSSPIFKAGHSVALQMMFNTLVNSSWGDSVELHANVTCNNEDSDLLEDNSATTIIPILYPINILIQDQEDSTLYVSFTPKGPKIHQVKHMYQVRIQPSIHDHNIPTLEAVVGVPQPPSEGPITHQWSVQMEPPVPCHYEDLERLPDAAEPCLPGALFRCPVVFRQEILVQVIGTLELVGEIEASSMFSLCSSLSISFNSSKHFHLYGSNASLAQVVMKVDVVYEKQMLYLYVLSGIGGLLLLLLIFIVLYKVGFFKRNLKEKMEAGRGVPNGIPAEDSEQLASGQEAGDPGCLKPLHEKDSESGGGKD

Assays:
[1] = target: T1, LFA-1 (Homo sapiens, UniProt P05107+P20701); assay: LFA-1/small molecule ELISA, antagonist competition with compound 2B; format: binding
T1 construct: made in house; host or cells: human 293 cells

[2] = target: T2, LFA-1/ICAM-1 (Homo sapiens, UniProt P05107+P20701); assay: LFA-1/ICAM-1 ligand binding ELISA with Schild analysis; conditions: FIG. 10A, C, E
T2 construct: made in house; host or cells: human 293 cells
Excerpt: (§1) Pharmacologic Analysis of Drug-Receptor Interaction, Lippincott-Raven, Philadelphia). […] The order of antagonist concentrations was, -[…]-(lowest added antagonist concentration), -Δ-, -μ-, -♦-, -▪-, -σ- to -λ-(highest antagonist concentration). The fits of the data are shown as the solid lines. The data shown are from one plate and are representative of a minimum of two experiments.
This model is based upon the assumptions that equiactive responses in an assay are the result of equivalent occupancy of receptor by ligand and that maximal binding is unchanged by the presence of antagonist. In a Schild analysis, the dose ratio is the ratio of the EC50 values in the presence and absence of antagonist and is a measure of the ligand concentrations leading to equiactive responses. This dose ratio was determined for each concentration of antagonist and the Schild regressions were plotted as shown in FIG. 11.
(§2) In all cases the ligand was added concurrently with the antagonist. The plates were incubated for 6 h at 37° C. to approach equilibrium conditions after antagonist and ligand addition, before wash and addition of the detection antibody. The EC50 values for each curve were determined by fitting with a four parameter model as described above. […] The slopes of the plots of the Log (Conc. ratio −1) vs. Antagonist concentration are calculated by fitting the line to the linear equation, Y=A+BX.

[3] = target: T1, LFA-1; assay: LFA-1/small molecule ligand binding ELISA; conditions: FIG. 10B, D, F
Experimental: as §1, §2

effect on binding of compound 2B to LFA-1 ([1]; FIG. 8B): did not inhibit but rather enhanced
concentration of maximal enhancing effect on compound 2B binding ([1]; transient increase in absorbance): approximately 4 μM
Structure (SMILES): CC(=O)N1CCN(C(=O)/C=C/c2ccc(Sc3ccccc3C(C)C)c([N+](=O)[O-])c2)CC1 [A-286982, reference compound]
effect of increasing antagonist concentration on ICAM-1-Ig binding curves [2]: the maximum binding of ICAM-1-Ig to LFA-1 decreased considerably
effect of increasing antagonist concentration on compound 2B binding curves [3]: shifted the compound 2B binding curves to lower EC50 values
